Measurements as given in US20070036775A1, “Method of modulating or examining Ku70 levels in cells” (priority 2001, published 2007).

Tested on: Hela cells
Experiment: Anti-Fas antibody- and TRAIL-induced apoptosis in Hela cells
Assay type: cell-based, human
Settings: Ku70 overexpression, 1 μg/ml anti-Fas antibody or 100 ng/ml TRAIL, 24 hours
Experimental: FIG. 3. Lowering Ku70 protein levels sensitized cells to apoptotic stimuli. […] One million of HEK293T cells (A and C) or HeLa cells (B, D, and E) were transfected with 2.0 μg pcDNA3 (Vector) or pcDNA3-reversed cDNA of Ku70 (antisense (AS) Ku70). Twenty-four hrs later, cells were collected and the levels of Ku70 as well as β-Tubulin were examined using total cell lysates (20 ug protein/lane). FIG. 3A: HEK293T cells (10^6 cells) were transfected with 2.0 μg pcDNA3 (Vector) or pcDNA3-antisense Ku70 (ASKu70). One day following transfection, cells were transfected with 0.5 μg pEGFP and 1.0 μg pcDNA3 (Vector) or pcDNA3-Bax (Bax). One day following the second transfection, the number of apoptotic cells was determined as described in FIG. 1. […] The number of apoptotic cells was measured as described in FIG. 1. […] One day following UVC-irradiation, the number of apoptotic cells was determined as described in FIG. 1. […] The number of apoptotic cells was measured as described in FIG. 1. […] Total cell lysates containing 20 ug protein were analyzed in each lane. […] MEFs derived from Ku70-proficient (Ku70+/+), Ku70-heterozygous (Ku70 +/−) or Ku70-deficient (Ku70−/−) mice were treated with STS (200 nM) or UVC-irradiation (200 J/m^2), and apoptotic cells were counted at the indicated periods as described in FIG. 1. […]

## Ku70: human full length Ku70, 70 kDa subunit of Ku-complex (609 amino acids), expressed from pCMV-2B plasmid
  effect on Fas- and TRAIL-induced apoptosis: did not suppress apoptosis
